In ChEMBL document CHEMBL1142242, “Indanylacetic acid derivatives carrying 4-thiazolyl-phenoxy tail groups, a new class of potent PPAR alpha/gamma/delta pan agonists: synthesis, structure-activity relationship, and in vivo efficacy” (J Med Chem, 2007):

Target: T1, Peroxisome proliferator-activated receptor delta (Homo sapiens, UniProt Q03181)
T1 sequence (Q03181 whole entry): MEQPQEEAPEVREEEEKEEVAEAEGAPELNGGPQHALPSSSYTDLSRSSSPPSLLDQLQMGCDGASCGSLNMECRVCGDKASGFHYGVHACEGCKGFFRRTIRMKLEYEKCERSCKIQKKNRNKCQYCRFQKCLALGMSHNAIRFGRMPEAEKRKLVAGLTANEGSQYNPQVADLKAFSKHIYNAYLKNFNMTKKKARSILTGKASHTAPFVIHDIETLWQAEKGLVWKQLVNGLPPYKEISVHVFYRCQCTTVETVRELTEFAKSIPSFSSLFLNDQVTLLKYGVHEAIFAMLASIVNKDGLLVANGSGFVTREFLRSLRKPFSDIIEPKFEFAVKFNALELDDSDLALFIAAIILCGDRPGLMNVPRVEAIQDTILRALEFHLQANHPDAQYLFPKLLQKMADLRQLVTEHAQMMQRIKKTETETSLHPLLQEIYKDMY
Experiment: Agonist activity at human PPAR delta by FRET assay
Format: functional

Work on COc1cc(-c2nccs2)ccc1OCCCOc1ccc2c(c1)CC[C@H]2CC(=O)O yielded an EC50 of 0.58 nM.
